AlphaSeq binding of Ab-14 light chain variants to a spike HR2 peptide

From the AlphaSeq antibody data of Li et al. 2023 (doi:10.1038/s41467-023-39022-2), copy in the FLAb collection.

Target: peptide PDVDLGDISGINAS, taken from heptad repeat 2 (HR2) of SARS-CoV-2 spike.

Ab-14 is the parent antibody, in scFv form: VH, then three GGGGS repeats, then VL. The heavy chain is unchanged in all variants.
VH: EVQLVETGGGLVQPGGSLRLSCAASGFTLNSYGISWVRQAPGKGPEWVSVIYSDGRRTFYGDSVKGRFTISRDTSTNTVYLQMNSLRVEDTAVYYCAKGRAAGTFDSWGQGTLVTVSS
VL: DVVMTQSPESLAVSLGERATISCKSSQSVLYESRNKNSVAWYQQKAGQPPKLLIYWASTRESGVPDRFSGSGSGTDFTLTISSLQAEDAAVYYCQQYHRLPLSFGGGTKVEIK

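These sequences belong to a second round, designed from the earlier measurements on random variants of the parent. Group labels follow the data file (Ctrl: baseline library sampled from a position-specific scoring matrix, with some repeated check sequences; En: ensemble of fine-tuned language models; GP: Gaussian process model; HC: hill climbing; Gen: genetic algorithm; Gibbs: Gibbs sampling; a sequence that several methods proposed may carry one label only). The scFvs were displayed on barcoded MATa yeast, the peptide on MATalpha yeast. After mating in shaken culture at 30 °C for 16 h, diploids were selected and their barcode pairs sequenced. The ratio of observed to expected reads was calibrated, replicate by replicate, on BCL2-family standards whose Kd was known from biolayer interferometry. Mating was done six times.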

Each variant's VL is given in full.
Numbers give log10(Kd / nM), so 0 is 1 nM and 3 is 1 µM. Smaller is tighter.
Replicates are averaged; those with no signal do not enter the mean.
A pair that was not seen in any replicate is written "nd"; this usually means weak binding, but a binder can also be missed.
The range of this assay differs from that of the first round, and the authors advise against merging the two.
The parent sequence was in this pool as ten entries: three were never detected, three once, and four in most replicates, with averages from 0.34 to 2.37.
Background: pairings of all light chain designs with three empty control strains gave a value in 4% of cases (median 2.64, 5th percentile 1.59). Values in that range, when seen in few replicates, are hard to tell from nonspecific mating.
The authors' rule: three or more of the six replicates give a measured affinity, fewer mean a poor binder.

| # | log10 Kd (nM), mean | seen in | VL | group |
|---|---|---|---|---|
| 1 | 0.18 | 6 of 6 | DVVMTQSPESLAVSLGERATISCYSSISYLGESRNKNSVAWYQQKAGQPPKLLIYEASTRESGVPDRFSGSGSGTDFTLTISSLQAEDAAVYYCQQYHRLPLSFGGGTKVEIK | GP_HC |
| 2 | nd | 0 of 6 | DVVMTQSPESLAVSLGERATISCKISQSVLYESRNKNSIAWYQQKAGQPPKLLIYNANQREQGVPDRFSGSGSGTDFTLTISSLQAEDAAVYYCQQYHRLPLSFGGGTKVEIK | GP_Gibbs |
| 3 | -0.31 | 6 of 6 | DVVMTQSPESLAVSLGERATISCKLSCGVDYWSRNKNSVAWYQQKAGQPPKLLIYGGSTRESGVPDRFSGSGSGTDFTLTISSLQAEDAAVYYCQQYHRLPLSFGGGTKVEIK | GP_Gibbs |
| 4 | 0.12 | 6 of 6 | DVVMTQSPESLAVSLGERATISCKSGQGELYESRNKNSVAWYQQKAGQPPKLLIYGASTRESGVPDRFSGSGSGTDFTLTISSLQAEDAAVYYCQQYHRLPLHFGGGTKVEIK | GP_HC |
| 5 | 0.62 | 6 of 6 | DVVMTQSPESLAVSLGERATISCKLSQSWMRESRNKNSVAWYQQKAGQPPKLLIYQASTREQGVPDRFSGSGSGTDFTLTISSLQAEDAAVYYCQQYHRLPLSFGGGTKVEIK | GP_Gibbs |
| 6 | -0.15 | 6 of 6 | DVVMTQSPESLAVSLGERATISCKLQQSWLYESRNKNSVAWYQQKAGQPPKLLIYNASQREDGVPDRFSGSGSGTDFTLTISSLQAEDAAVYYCQQYHRLPLSFGGGTKVEIK | GP_Gen |
| 7 | -0.53 | 6 of 6 | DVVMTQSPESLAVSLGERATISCKLEGSNLYESRNGNSVAWYQQKAGQPPKLLIYNASTRYSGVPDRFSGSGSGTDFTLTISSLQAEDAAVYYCQQYHRLPLSFGGGTKVEIK | GP_Gibbs |
| 8 | 0.45 | 6 of 6 | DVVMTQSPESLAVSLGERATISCIISQVDAYESRNKNSIAWYQQKAGQPPKLLIYDQSTRGSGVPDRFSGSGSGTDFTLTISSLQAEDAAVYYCQQYDRLPLSFGGGTKVEIK | En_HC |
| 9 | nd | 0 of 6 | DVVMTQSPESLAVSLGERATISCKSSQSVYYESMNKNSVAWYQQKAGQPPKLLIYWASWRESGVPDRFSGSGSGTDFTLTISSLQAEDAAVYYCFQYHRLPLSFGGGTKVEIK | Ctrl |
| 10 | 0.18 | 6 of 6 | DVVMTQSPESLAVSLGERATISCTISYSAMMTGLNRNSVAWYQQKAGQPPKLLIYQAEERLEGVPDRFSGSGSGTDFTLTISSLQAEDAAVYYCQQYHRLPLSFGGGTKVEIK | En_HC |
| 11 | -0.03 | 6 of 6 | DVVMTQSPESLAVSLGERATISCKNDISHLGESRNKNAVAWYQQKAGQPPKLLIYQASTREEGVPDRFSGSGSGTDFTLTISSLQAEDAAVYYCQQYHRLPLSFGGGTKVEIK | GP_Gibbs |
| 12 | 1.32 | 3 of 6 | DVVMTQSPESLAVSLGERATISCKCSQSVLYEERMKNSVAWYQQKAGQPPKLLIYWASTRESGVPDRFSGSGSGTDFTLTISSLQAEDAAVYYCQQYARLPLSFGGGTKVEIK | Ctrl |
| 13 | 0.36 | 6 of 6 | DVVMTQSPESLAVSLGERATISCRLLDWAYGWTMKERNIAWYQQKAGQPPKLLIYDEDIRGAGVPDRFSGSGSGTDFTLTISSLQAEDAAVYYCQQYSHLPLAFGGGTKVEIK | En_Gibbs |
| 14 | 0.13 | 6 of 6 | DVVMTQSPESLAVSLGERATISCKLSMTAEMELKNRNSVAWYQQKAGQPPKLLIYELVTRMSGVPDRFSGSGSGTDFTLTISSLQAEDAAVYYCQQYNRLPLSFGGGTKVEIK | En_Gen |
| 15 | 0.13 | 6 of 6 | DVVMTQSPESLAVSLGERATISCKLSQSVLYESRNKNNVAWYQQKAGQPPKLLIYEASTRCSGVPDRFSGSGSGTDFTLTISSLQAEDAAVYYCQQYHRLPLSFGGGTKVEIK | GP_Gen |
| 16 | -0.33 | 6 of 6 | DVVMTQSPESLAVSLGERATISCKLQQSVLYESRNWNSVAWYQQKAGQPPKLLIYNASTRESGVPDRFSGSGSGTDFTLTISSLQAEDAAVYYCQQYHRLPLSFGGGTKVEIK | GP_Gen |
| 17 | 0.28 | 6 of 6 | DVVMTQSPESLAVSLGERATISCKLYQSMGYLSHMKNSIAWYQQKAGQPPKLLIYDMSRRENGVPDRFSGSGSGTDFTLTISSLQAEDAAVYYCQQYHRLPLSFGGGTKVEIK | En_HC |
| 18 | -0.23 | 6 of 6 | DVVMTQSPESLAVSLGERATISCKLQQSWLYESRNKNSVAWYQQKAGQPPKLLIYDASQRESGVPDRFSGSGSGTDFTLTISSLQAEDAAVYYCQQYHRLPLSFGGGTKVEIK | GP_Gen |
| 19 | 0.76 | 6 of 6 | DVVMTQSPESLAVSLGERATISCKLNDTFQVYERNNGSVAWYQQKAGQPPKLLIYDAIISEAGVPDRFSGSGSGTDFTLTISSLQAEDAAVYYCQQYARLPLIFGGGTKVEIK | En_Gibbs |
| 20 | 0.12 | 6 of 6 | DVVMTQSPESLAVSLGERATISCKLMQSVLYESRNKNSVAWYQQKAGQPPKLLIYEASLREDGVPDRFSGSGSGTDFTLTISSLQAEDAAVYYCQQYHRLPLSFGGGTKVEIK | GP_HC |
| 21 | -0.29 | 6 of 6 | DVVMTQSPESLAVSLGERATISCKLSQSELYESRNKNSVAWYQQKAGQPPKLLIYEASTRESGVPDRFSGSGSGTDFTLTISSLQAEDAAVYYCQQYHRLPLSFGGGTKVEIK | GP_Gen |
| 22 | 0.69 | 6 of 6 | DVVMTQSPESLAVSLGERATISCHFSVETMEFMGQNKAIAWYQQKAGQPPKLLIYEVTTTMLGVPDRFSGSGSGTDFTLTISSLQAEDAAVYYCQQYARLPFIFGGGTKVEIK | En_Gibbs |

Top 2 of the variants detected in all replicates, tightest first:

| VL | group | log10 Kd (nM), mean | seen in |
|---|---|---|---|
| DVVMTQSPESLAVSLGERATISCKLEGSNLYESRNGNSVAWYQQKAGQPPKLLIYNASTRYSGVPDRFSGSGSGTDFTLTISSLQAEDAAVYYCQQYHRLPLSFGGGTKVEIK | GP_Gibbs | -0.53 | 6 of 6 |
| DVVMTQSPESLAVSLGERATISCKLQQSVLYESRNWNSVAWYQQKAGQPPKLLIYNASTRESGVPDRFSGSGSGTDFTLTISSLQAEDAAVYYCQQYHRLPLSFGGGTKVEIK | GP_Gen | -0.33 | 6 of 6 |